Experimental data: patent publication US20060094649A1 (published 2006)
Blank lines part the entries; values can stand above or below the binder they belong to.

Columns and labels:
[1] = biological target: HLA-A*2402 (human); experiment: competitive inhibition of 125I-A24con binding to purified HLA
[2] = biological target: HLA-B*3501 (human); experiment: inhibition of 125I-B35con2 probe, purified HLA
[3] = biological target: HLA-B*1801 (human); experiment: competition with labeled probe peptide, purified HLA class I
[4] = biological target: HLA-A*1101 (human); experiment: competition vs 125I probe, purified HLA
[5] = biological target: HLA-A*0101 (human); experiment: competitive inhibition of 125I-human J chain peptide binding to purified HLA
[6] = biological target: HLA-B*4501 (human); experiment: competitive inhibition of radiolabeled probe peptide, purified HLA
[7] = biological target: HLA-B*4001 (human); experiment: as above
[8] = biological target: HLA-B*4403 (human); experiment: as above
[9] = biological target: HLA-B*3501 (human); experiment: competitive inhibition of 125I-B35con2 binding to purified HLA
[10] = biological target: HLA-A*0101 (human); experiment: inhibition of 125I-J chain peptide probe, purified HLA
[11] = biological target: HLA-B*1801 (human); experiment: competitive inhibition of radiolabeled probe peptide, purified HLA
[12] = biological target: HLA-B*4403 (human); experiment: competition with labeled probe peptide, purified HLA class I
[13] = biological target: HLA-B*4501 (human); experiment: as above
[14] = biological target: HLA-B*4402 (human); experiment: competitive inhibition of radiolabeled probe peptide, purified HLA
[15] = biological target: HLA-B*4002 (human); experiment: as above
[16] = biological target: HLA-B*4501 (human); experiment: competition vs labelled reference peptide on HLA class I
[17] = biological target: HLA-B*4002 (human); experiment: competition with labeled probe peptide, purified HLA class I
[18] = biological target: HLA-B*1801 (human); experiment: as above; remark: listed apart in the source
[19] = biological target: HLA-B*4402 (human); experiment: as above

IC50 [1]: 0.0071 µM
Binder: KYVELVHFF [MAGE2.112.Y2F9 KYVELVHFF]

IC50 [2]: 0.343 µM
Binder: LPTTMNYPI [MAGE3.7LI9 LPTTMNYPI]

IC50 [3]: 10.8 µM
Binder: DEGSSNQEEEG [DEGSSNQEEEG (MAGE2, position 84)]

IC50 [4]: 0.0063 µM
Binder: SVFSTTINR [MAGE2.69.V2R9 (SVFSTTINR)]

IC50 [5]: 0.0027 µM
Binder: VTDLGLSY [MAGE2.179.D3 VTDLGLSY]

IC50 [6]: 18.4 µM
IC50 [7]: 0.687 µM
IC50 [8]: 0.706 µM
Binder: EEENLRKKG [EEENLRKKG (p53, position 285, 9-mer)]

IC50 [9]: 0.343 µM
Binder: LPTTMNYPI [MAGE3.71.I9 …]

IC50 [10]: 0.266 µM
Binder: PTDSPLNTSY [CEA.240.D3 PTDSPLNTSY]

IC50 [6]: 18.1 µM
IC50 [11]: 8.51 µM
IC50 [7]: 18.4 µM
Binder: QETFSDL [QETFSDL (p53, position 16, 7-mer)]

IC50 [12]: 0.985 µM
IC50 [13]: 15.5 µM
IC50 [3]: 6.04 µM
Binder: PEEKIWEELSM [PEEKIWEELSM (MAGE2, position 217)]

IC50 [14]: 4.09 µM
IC50 [15]: 7.99 µM
IC50 [8]: 1.94 µM
Binder: PEVGSDCTTIHY [PEVGSDCTTIHY (p53, position 223, 12-mer)]

IC50 [16]: 0.196 µM
Binder: GEGLACHQLCA [GEGLACHQLCA (Her2/neu position 506, 11-mer)]

IC50 [17]: 18.6 µM
Binder: PEEGLEARGEA [PEEGLEARGEA (MAGE2, position 12)]

IC50 [18]: 0.144 µM
Binder: QEAASSSSTL [QEAASSSSTL (position 36; protein printed as MAGE2 in the table of MAGE3-derived peptides)]

IC50 [12]: 4.47 µM
IC50 [19]: 2.52 µM
IC50 [17]: 18.5 µM
IC50 [13]: 5.86 µM
Binder: EEGLEARGEALGL [EEGLEARGEALGL (MAGE2, position 13)]
